Reference: publication PMC11913717

Target: biotinylated EGF receptor (Acro) (UniProt P00533)
Test: SPR; Biacore X100, biotinylated EGFR immobilised on SA chip (5000 RU); EGF injected in HBS-EP pH 7.4, 150 mM NaCl, contact 180 s, dissociation 600 s; steady state fit

wild‐type EGF (commercially available) (ligand)
Kd: 7.3 nM
